## Binding of CDR-mutated scFvs to a peptide of the spike HR2 region

Binding partner: SARS-CoV-2 spike HR2 peptide, sequence PDVDLGDISGINAS.

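This is the validation round: designs drawn from the data on random variants, tested in the same kind of assay. Several design methods are mixed in this list. The assay is AlphaSeq: two haploid yeast populations carry antibody and antigen on their surface. After mating in shaken culture at 30 °C for 16 h, diploids were selected and their barcode pairs sequenced. Scores were corrected for input abundance and mapped to Kd with protein pairs of known affinity run in the same pool. Each pool was mated in six replicate cultures.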

Parent scFv Ab-14: VH joined to VL by a 15-residue (Gly4Ser)3 linker. Changes lie in the heavy chain CDRs alone.
VH: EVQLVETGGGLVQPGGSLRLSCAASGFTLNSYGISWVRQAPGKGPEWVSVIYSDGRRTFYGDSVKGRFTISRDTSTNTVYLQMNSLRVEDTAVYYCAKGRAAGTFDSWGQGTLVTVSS
VL: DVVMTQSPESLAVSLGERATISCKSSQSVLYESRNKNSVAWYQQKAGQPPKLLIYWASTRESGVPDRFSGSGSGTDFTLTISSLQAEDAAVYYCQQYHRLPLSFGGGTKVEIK

Variants are written as CDR1, CDR2 and CDR3 of the heavy chain (limits as in the source). Parent: GFTLNSYGIS, VIYSDGRRTFYGDSVK, GRAAGTFDS.
This list holds designs with more than six substitutions.
Affinities are written as log10 Kd with Kd in nM; a lower number is a better binder.
The mean shown is taken over the replicates in which the pair was detected.
A pair that was not seen in any replicate is written "nd"; this usually means weak binding, but a binder can also be missed.
Background: pairings of all heavy chain designs with three empty control strains gave a value in 1% of cases (median 2.08, 5th percentile 0.84). Values in that range, when seen in few replicates, are hard to tell from nonspecific mating.
The parent sequence was in this pool as ten entries: three were never detected, three once, and four in most replicates, with averages from 0.34 to 2.37.
In the paper, a design with two or fewer of six values counts as a poor binder.
A sequence measured in both rounds can read differently, since the two assays cover different ranges.

* GFDIQEYGIS / VIYADGHRTAYTNKVK / GGISMISST: nd (0 of 6 replicates)
* GFDLNEYGIS / VIYADGVRTAYSDSVK / GEVAGTFDM: 0.17 (6 of 6 replicates)
* GFDLDEYGIS / VIYADGRRTFYADSVK / GEEAGTFDI: -0.47 (6 of 6 replicates)
* GFDLNEYGIS / VIYADGMRTAYQDSVK / GENAGTFDI: 0.46 (6 of 6 replicates)
* GSNLDEYGIS / VIYADGMRQAYIEDVK / GQSGVSVFF: nd (0 of 6 replicates)
* GFDLNEYGIS / VIYADGVRSAYADSVK / GNVAGTFDV: -0.90 (6 of 6 replicates)
* GFDLDEYGIS / VIYADGMRTAYSDSVK / GNQAGTFDL: -0.18 (6 of 6 replicates)
* GFDLNEYGIS / VIYADGMRTAYTDKVK / GENAGTFDV: -0.73 (6 of 6 replicates)
* GFDLNEYGIS / VIYADGKKTGFVNTVK / GESGGNFDD: nd (0 of 6 replicates)
* GFGLDEYGIS / VIYADGKRASYHDNVK / GFNYGVDIL: nd (0 of 6 replicates)
* GFDLNEYGIS / VIYADGMRTAYVDDVK / GENAGTFDV: 0.21 (6 of 6 replicates)
* GFDLNEYGIS / VIYADGVRTAYADSVK / GNVAGTFDQ: -0.56 (6 of 6 replicates)
* GFDLNEYGIS / VIYADGRRTAYADSVK / GNVAGTFDI: -0.45 (6 of 6 replicates)
* GFDLDEYGIS / VIYADGMRTAYADSVK / GNVAGTFDK: -0.33 (6 of 6 replicates)
* GFDINEYGIS / VIYADGQRTFYADSVK / GQTAGTFDS: -0.78 (6 of 6 replicates)
* GFNLDEYGIS / VIYADGRRTFYADSVK / GQVAGTFDV: -0.01 (6 of 6 replicates)
* GFDLDEYGVS / VIYADGRRKKYADAVK / GTHGGTILA: nd (0 of 6 replicates)
* GNTLNEYGIS / VIYADGIRKQYSDNVK / GMNGDTFTQ: nd (0 of 6 replicates)
* GFDLNEYGIS / VIYADGMRTYYADSVK / GNVAGTFDT: -0.31 (6 of 6 replicates)
* GFDLNEYGIS / VIYADGRRTFYTDSVK / GEVAGTFDL: -0.58 (6 of 6 replicates)
* GFKLNEYGIS / VVYSWGRRTFYCDSVK / GRAAVTFDQ: nd (0 of 6 replicates)
* GFDLDEYGIS / VIYADGKRTFYSDSVK / GSTAGTFDV: -0.20 (6 of 6 replicates)
* GFDLNEYGIS / VIYADGRRTAYSDSVK / GNAGGTFDS: 0.28 (6 of 6 replicates)
* GFDLNEYGIS / VIYADGMRTAYADSVK / GVNAGTFDI: -0.30 (6 of 6 replicates)
* GFDLNEYGIS / VIYADGMRTAYADNVK / GETAGTFDM: -0.44 (6 of 6 replicates)
* GFDLDEYGIS / VIYADGKRTAYSDDVK / GENAGTFDV: 0.00 (6 of 6 replicates)
* GFDLDEYGIS / VIYADGQRTFYADSVK / GEAAGTFDI: 0.17 (6 of 6 replicates)
* EFDIQEYGIS / VIYADGKREAYKDKFK / GNVAGTFDA: -0.13 (6 of 6 replicates)
* GFTIDEYGIS / VIYADGQRVAYDEKVK / GMLAGTFDQ: -0.43 (6 of 6 replicates)
* GADINEYGIS / VIYADGSRTVYADTVK / GHHGGIFDS: nd (0 of 6 replicates)
* GFDLNEYGIS / VIYADGKRTAYADDVK / GEVAGTFDT: -0.08 (6 of 6 replicates)
* GFKLDEYGIS / VIYADGQRKHYADSVK / GQIDVYYTA: 4.52 (2 of 6 replicates)
* GFDLNEYGIS / VIYADGMRTAYANDVK / GETAGTFDL: -0.95 (6 of 6 replicates)
* GFDLNEYGIS / VIYADGMRKAYSDSVK / GNVAGTFDQ: -0.26 (6 of 6 replicates)
* GFDLNEYGIS / VIYADGRRTFYADSVK / GEQAGTFDV: -0.46 (6 of 6 replicates)
* GFDLDKYGIS / VIYADGARKAYQNQFK / GGQAGTFVN: 2.44 (4 of 6 replicates)
* GFDLDEYGIS / VIYADGMRTAYVDSVK / GENAGTFDM: -0.29 (6 of 6 replicates)
* GFDLNEYGIS / VIYADGKRTAYTDSVK / GNQAGTFDI: -0.16 (6 of 6 replicates)
* GFDLNEYGIS / VIYADGMRQAYADSVK / GNNAGTFDI: 0.69 (6 of 6 replicates)
* GFNLEEYGIS / VIYADGTRTAYLDTVK / GVTGGTFIM: nd (0 of 6 replicates)
* GFDLQELGIS / VIYADGTREAYSEKVK / GQLAGYFMF: nd (0 of 6 replicates)
* GFNLNEYGIS / VIYADGNRNAYADSFK / GLHANFFAI: nd (0 of 6 replicates)
* GFDIDEYGIS / VIYADGMRTFYTDSVK / GEAAGTFDL: 1.71 (5 of 6 replicates)
* GFSLNEYGIS / VIYADGTRTAYADDVK / GAYDTVAVL: 2.72 (1 of 6 replicates)
* GFDLNEYGIS / VIYADGMRTAYTDSVK / GENAGTFDV: 0.07 (4 of 6 replicates)
* GFQLNEYGIS / VIYADGIRREYASKVK / GGINASFDL: nd (0 of 6 replicates)
* GFDLNEYGIS / VIYADGQRTAYADSVK / GKVAGTFDM: -0.76 (6 of 6 replicates)

The first 5 entries again:

CDR-H1	CDR-H2	CDR-H3	mean log10 Kd (nM)	seen in
GFDIQEYGIS	VIYADGHRTAYTNKVK	GGISMISST	nd	0 of 6
GFDLNEYGIS	VIYADGVRTAYSDSVK	GEVAGTFDM	0.17	6 of 6
GFDLDEYGIS	VIYADGRRTFYADSVK	GEEAGTFDI	-0.47	6 of 6
GFDLNEYGIS	VIYADGMRTAYQDSVK	GENAGTFDI	0.46	6 of 6
GSNLDEYGIS	VIYADGMRQAYIEDVK	GQSGVSVFF	nd	0 of 6

From the AlphaSeq antibody data of Li et al. 2023 (doi:10.1038/s41467-023-39022-2), copy in the FLAb collection.